Assay results published in patent US4315018A, “Specific parasiticidal use of 2-benzamido-5-nitro-thiazole derivatives” (priority 1978, dated 1982).

Legend:
Moniezia spp. = assay: Treatment of Moniezia expansa in lambs (natural infestation); type: in vivo; conditions: 50 mg/kg
Description: Twenty lambs spontaneously infested by nematodes and cestodes were removed from a flock near Limoges (Haute-Vienne), France. They were housed in sheepfold --concentrate food, 1 kg per day per lamb, water and hay, ad libitum, were provided.
The animals were assigned to treatment groups as indicated below:
Seven lambs (Group 1, black) were given a single 100 mg/kg of body weight dose of the test material dissolved in a mixture of water and gum syrup (0.5 ml/kg of body weight) orally administered with a syringe.
Seven lambs (Group 2, red) were given a single 50 mg/kg of body weight dose of the test material dissolved in a mixture of water and gum syrup (0.5 ml/kg of body weight) orally administered with a syringe.
Six lambs (Group 3, blue) were given 0.5 ml/kg of body weight of a mixture of water and gum syrup orally administered with a syringe.
48 hours after treatment, necroscopies were performed.
Scolices and gastro intestinal worm counts were carried out.

Taenia pisiformis = assay: Treatment of Taenia pisiformis in dogs (experimental infection, single oral dose); type: in vivo, dogs (beagles)
Description: Fifteen beagles (8 male and 7 female), ranging in age from 8 to 30 months, were individually housed in stainless-steel cages and fed with commercial dog food. Water was provided ad libitum. After 2 weeks acclimatization, each dog was exposed to infection by administering orally 14-20 cysts containing Taenia pisiformis strobilocerci obtained 24 hours before from wild rabbits. Vitality of the cysts was verified by evagination in bile of the dog.
Seven dogs (Group 1) were given the drug 6 weeks after infection with Taenia pisiformis, and the other 8 dogs (Group 2) were given the drug 8 weeks after infection.
Food and water intake, faecel consistency, vomiting, general appearance and behavior were recorded hourly during the day of treatment and twice daily thereafter.
The tapeworms that were found were then removed, counted and examined for scolices.
The emission time of the faeces for each dog was recorded during the day, when possible.
Nineteen days after treatment for Group 1, and 4 days after treatment for Group 2, the dogs were killed and the small intestines were examined in order to reveal the presence of Taenia spp. This 19-day waiting period for Group 1 allowed time for any viable scolices to redevelop, thus making them more easily visible at necropsy. […]

CC(=O)Oc1ccccc1C(=O)Nc1ncc([N+](=O)[O-])s1 [PH 5776, 2-(2'-acetoxy)-benzamido-5-nitro-thiazole]
Total number of scolices recovered compared with control group (Moniezia spp.): less in that lot than in the control group
Number Of Worms Recovered At Necropsy (Taenia pisiformis; Group 1, 75 mg/kg, 6 weeks after infection, sacrifice on day 19): 0
Number Of Worms Recovered At Necropsy (Taenia pisiformis; Group 2, 75 mg/kg, 8 weeks after infection, sacrifice on day 4): 0
